Antibody variant affinities, Ab-91 heavy chain, assay 2

Source: Engelhart et al. 2022 (doi:10.1038/s41597-022-01779-4), MIT Lincoln Laboratory and A-Alpha Bio; data file from the FLAb repository.

Target: peptide PDVDLGDISGINAS, taken from heptad repeat 2 (HR2) of SARS-CoV-2 spike.

Each scFv is VL, a 15-residue (Gly4Ser)3 linker, VH, as in the parent Ab-91, and differs from it in the CDRs of the heavy chain only.
VL: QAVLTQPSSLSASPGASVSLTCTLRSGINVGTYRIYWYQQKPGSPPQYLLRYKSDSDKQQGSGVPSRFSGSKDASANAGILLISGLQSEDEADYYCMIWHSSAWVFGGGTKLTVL
VH: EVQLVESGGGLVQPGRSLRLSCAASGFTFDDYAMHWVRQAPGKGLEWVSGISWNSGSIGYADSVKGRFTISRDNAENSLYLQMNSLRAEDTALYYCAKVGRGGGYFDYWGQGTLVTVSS

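Phage display of a naive human antibody library on the peptide gave the parent. The library (AAYL51) carries one to three amino acid substitutions per variant, with no insertions or deletions. In AlphaSeq, yeast of one mating type display the scFv and yeast of the other type display the target. Mating (16 h, 30 °C) was followed by selection of diploids and sequencing of their barcodes. The ratio of observed to expected reads was calibrated, replicate by replicate, on BCL2-family standards whose Kd was known from biolayer interferometry. Each pool was mated in three replicate cultures.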

The parent's heavy chain CDRs are GFTFDDYAMH, GISWNSGSIGYADSVK, VGRGGGYFDY; each variant's own CDRs replace them letter for letter. Affinities are written as log10 Kd with Kd in nM; a lower number is a better binder. Replicates are averaged; those with no signal do not enter the mean. "nd" marks a missing value. The strain was present, yet no cells mated with the target were sequenced in that replicate, which points to weak or no binding. For reference, the parent read 1.86 as the reference entry and 0.88 as a member of this library.

CDR-H1,CDR-H2,CDR-H3,"replicates, log10 nM","mean, log10 nM"
GFTFDDYAMH,GISWNSGSIGYACSVK,VHRGGGYFIY,1.74 / 1.66 / 1.53,1.64
GFTFDDYAFH,GISWNSGSIGYADSKK,VGRGGGYFLY,nd / nd / nd,nd
GFDFDDYAMH,GISWNSGSIGEADSVK,VFRGGGYFDY,3.29 / 2.86 / 2.05,2.73
GFTFDDYAMH,YISWNSGSIGLADSVK,VGRGGGYFYY,nd / 4.49 / nd,4.49
GATFDDGAMH,GISWNSGVIGYADSVK,VGRGGGYFDY,5.50 / 4.95 / nd,5.23
GWTFDDYAMH,GISWNSGSIGYADSVK,VGTGMGYFDY,nd / nd / nd,nd
CFTFDDYAMH,GISWNSKSIGYADSVK,VGRGGGYFTY,2.69 / nd / nd,2.69
GFTFDDYAMH,GISWNSVYIGYADSVK,VGRVGGYFDY,nd / nd / nd,nd
GFTFDDYAHH,GISWNSGSIGYADSVK,VGRWGHYFDY,4.49 / 5.36 / 3.81,4.55
GFTFDDYIMH,GISWNSGSIGYADSVK,VGRRGGYFDD,nd / nd / nd,nd
GFTFDDIAMH,GISWNSGSIGYADSVK,VGRGGGRFRY,nd / nd / nd,nd
GFTFIDYAMH,WISWNSGSIGYADSAK,VGRGGGYFDY,nd / nd / nd,nd
GFTFDDYAMH,GIKWNSGSIGYADSVD,VGRGGGYFDY,4.63 / 5.31 / 5.58,5.17
GFTFDDYAMH,SISHNSGSIGYADSVK,VGRGGGYFEY,nd / nd / nd,nd
DFTFDDYAMH,GIQWNSGSIGVADSVK,VGRGGGYFDY,4.15 / 4.74 / 6.10,4.99
GKTFYDYAMH,GISWNSGSIGYADSVK,PGRGGGYFDY,2.47 / 2.37 / 2.41,2.42
GFEFDDYAMH,GISWNSGSIGVVDSVK,VGRGGGYFDY,4.64 / nd / 4.98,4.81
GFTFDDRAMH,GISNNSGSIGYADSVK,VGRGGGYFDH,nd / nd / nd,nd
GFTFDDYAVH,GISWNSGSIGYADSVK,AGRGGGYFDY,nd / nd / nd,nd
QFTFDDYAMH,GISWNSGSIGCADSVK,VDRGGGYFDY,nd / 5.75 / nd,5.75
GFTFDDYAMH,GISWNSGSIGYAASVT,VGRGGNYFDY,nd / nd / nd,nd
GFTFDDYAMH,GISWNHGSFGYADSVK,VGRGSGYFDY,nd / nd / nd,nd
GFTFDDSSMH,GISWNSGSYGYADSVK,VGRGGGYFDY,1.39 / 1.67 / 1.40,1.48
GFTFDDYLMI,GISWNSGSIGYADSVC,VGRGGGYFDY,4.71 / nd / nd,4.71
GFTFDDYAMH,GISWNSGSIGYADSVK,VQRGGGYHTY,3.55 / 3.60 / 3.66,3.60
CFTLDDYAMH,GISWNSGSIGYADSVI,VGRGGGYFDY,3.83 / nd / nd,3.83
GFTFDDIASH,GISWNSRSIGYADSVK,VGRGGGYFDY,5.39 / nd / 3.56,4.47
GFTFDDYAMH,GISWNSGSIGVADSVK,WGRGGGYFFY,4.13 / nd / nd,4.13
GFTFDDYAMH,GISQNSGSIGYRYSVK,VGRGGGYFDY,4.53 / 3.26 / nd,3.89
GFDMDDYAMP,GISWNSGSIGYADSVK,VGRGGGYFDY,2.32 / 3.54 / 3.06,2.97
GFTNDDQAMH,GISWNSGSIGYADSVK,VGRGGGYFDP,4.64 / nd / 4.62,4.63
GFTFDDLAIH,GISWNSGSIGYADSVP,VGRGGGYFDY,nd / nd / nd,nd
GFTFDDYAMR,GISWNSGSTGYADSVK,VGRGGNYFDY,nd / nd / nd,nd
GFTFDDYAML,GISWNSGSIGYADSVA,VGRGGGDFDY,2.58 / 2.63 / 2.74,2.65
GFTFDDYAMH,GISWNSGSIGYADAVK,IWRGGGYFDY,1.07 / 1.15 / 0.59,0.94
GFTFADYAYH,GISWNSGSIGYADSVK,VGRFGGYFDY,5.57 / nd / nd,5.57
GFTFDDYAMH,GISWNSGSILTADSVK,VGRGGGYFDY,4.31 / nd / nd,4.31
GFTFDDYAMC,GISWNSGSIGYADSFK,VGRGGGYFYY,nd / nd / nd,nd
GFTFDDYCMH,GISWHSGSIGYADSVK,VGTGGGYFDY,nd / nd / nd,nd
GFTFSDYWMH,GISWNSGSIIYADSVK,VGRGGGYFDY,nd / nd / nd,nd
GFTFDDRAMH,GISWNSGSSGYLDSVK,VGRGGGYFDY,nd / nd / nd,nd
GFTFDDRAMH,GISWNSGSIGYADSVK,VGTGGGYIDY,nd / nd / nd,nd

The first 4 entries again:

{"CDR-H1": "GFTFDDYAMH", "CDR-H2": "GISWNSGSIGYACSVK", "CDR-H3": "VHRGGGYFIY", "replicates, log10 nM": "1.74 / 1.66 / 1.53", "mean, log10 nM": "1.64"}
{"CDR-H1": "GFTFDDYAFH", "CDR-H2": "GISWNSGSIGYADSKK", "CDR-H3": "VGRGGGYFLY", "replicates, log10 nM": "nd / nd / nd", "mean, log10 nM": "nd"}
{"CDR-H1": "GFDFDDYAMH", "CDR-H2": "GISWNSGSIGEADSVK", "CDR-H3": "VFRGGGYFDY", "replicates, log10 nM": "3.29 / 2.86 / 2.05", "mean, log10 nM": "2.73"}
{"CDR-H1": "GFTFDDYAMH", "CDR-H2": "YISWNSGSIGLADSVK", "CDR-H3": "VGRGGGYFYY", "replicates, log10 nM": "nd / 4.49 / nd", "mean, log10 nM": "4.49"}

As a blank, each scFv also met three strains without target: over library AAYL51, 21% of these pairings were detected, typically at 4.54 and seldom below 3.26.